Measurements from patent US9708370B2, “Azapeptides as CD36 binding compounds” (VALORISATION-RECHERCHE, LIMITED PARTNERSHIP, priority 2007, dated 2017).
Where two headings read alike, the source gives them in different places.

Amino acid sequences for entries named in this document (tags omitted). A change or cut given only in a name is not applied to a line headed by its entry.
UniProt Q92847, whole entry: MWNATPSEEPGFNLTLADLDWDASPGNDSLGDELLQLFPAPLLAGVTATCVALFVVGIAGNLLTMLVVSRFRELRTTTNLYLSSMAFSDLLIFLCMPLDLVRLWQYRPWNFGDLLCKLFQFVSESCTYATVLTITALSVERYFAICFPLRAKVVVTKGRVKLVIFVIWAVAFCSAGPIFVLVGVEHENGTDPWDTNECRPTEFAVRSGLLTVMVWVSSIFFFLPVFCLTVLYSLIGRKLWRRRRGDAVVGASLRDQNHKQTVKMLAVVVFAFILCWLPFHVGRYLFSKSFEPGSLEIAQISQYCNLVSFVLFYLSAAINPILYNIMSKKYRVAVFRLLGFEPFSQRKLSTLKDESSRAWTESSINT
UniProt Q07969: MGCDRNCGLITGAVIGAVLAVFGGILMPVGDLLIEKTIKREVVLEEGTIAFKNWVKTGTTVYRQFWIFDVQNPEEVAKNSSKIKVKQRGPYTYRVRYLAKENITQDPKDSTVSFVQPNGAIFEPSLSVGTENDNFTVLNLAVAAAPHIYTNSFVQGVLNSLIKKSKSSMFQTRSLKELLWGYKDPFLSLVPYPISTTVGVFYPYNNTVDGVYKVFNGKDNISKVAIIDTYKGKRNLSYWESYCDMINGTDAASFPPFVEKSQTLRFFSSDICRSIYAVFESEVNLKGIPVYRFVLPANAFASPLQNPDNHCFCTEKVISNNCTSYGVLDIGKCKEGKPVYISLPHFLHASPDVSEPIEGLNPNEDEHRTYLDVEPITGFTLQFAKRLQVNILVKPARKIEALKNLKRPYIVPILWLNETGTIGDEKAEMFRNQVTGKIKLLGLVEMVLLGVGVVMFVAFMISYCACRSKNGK

Assays:
[1] = target: human GHS-R1a (Homo sapiens (Human), UniProt Q92847); experiment: GHS-R1a binding assay, competition with 125I-ghrelin on membranes of LLC-PK1 cells expressing human GHS-R1a
Protocol: Rat ghrelin was radio iodinated with Na^125I using the lodo-Beads iodination reagent (Pierce #28665). Briefly, an lodo-bead was incubated with 2 mCi of Na^125I (Amersham) in 100 μL of 50 mM sodium phosphate buffer, pH 7.0 for 5 min at 22° C. The reaction was started by adding 20 nmol of the peptide (1 mM in 0.1 M acetic acid). The tube was incubated for 10 min at 22° C. The iodination was terminated by adding 1 mL of 0.1% TFA. The mono-iodinated peptide was purified by reverse-phase HPLC using a Vydac C18 ([…]) column (30 cm×0.39 cm) in combination with a binary elution system of (A) 0.1% TFA in H2O and (B) 0.1% TFA, 10% H2O, 90% acetonitrile. Fractions of 0.5 mL were collected and analyzed by its radioactive content.
Cells (1.4×10^6) were plated in 100 mm plates and transfected 24 h later with pCDNA3.1-hGHS-R1a (UMR cDNA Resource Center #GHSR0A0000) following the CaHPO4 precipitation method. Briefly, 40 μg of plasmid DNA was diluted in 500 μL of sterile H2O and added to an equal volume of a 4× CaCl2, pH 7.9 solution (2 mM Tris-HCl, 0.2 mM EDTA, 500 mM CaCl2). The mixture was then added slowly with air bubbles to 1 mL of 2× Hepes-buffered saline, pH 7.1 (50 mM Hepes, 280 mM NaCl, 1.5 mM Na2HPO4). After 30 min at room temperature, 1 mL was distributed evenly over the cells and let overnight. The medium was changed the next morning and the membrane preparation was made two days later.
Cells were washed twice with PBS and once with ice-cold homogenization buffer (50 mM Tris-HCl, pH 7.3, 5 mM MgCl2, 2.5 mM EDTA, 30 μg/ml bacitracin). Cells were scraped and harvested in 1.5 mL tubes. […] Total protein concentrations were determined with the BCA protein assay kit (Pierce).
Competition experiments were performed by incubating 50 μg of LLC-PK1 membranes expressing human GHS-R1a with 15 fmol of ^125I-Ghrelin and increasing concentrations of unlabeled ghrelin or with increasing concentrations of azapeptides derivatives in 0.5 mL of binding buffer. […] Filters were counted in a LKB gamma counter. Curves were analyzed using Prism software (GraphPad Software Inc).

[2] = target: CD36 (Rattus norvegicus (Rat), UniProt Q07969); experiment: CD36 receptor covalent photolabelling binding assay, competition with [125I]Tyr-Bpa-Ala-hexarelin on rat cardiac membranes; conditions: Table 3, [125I]Tyr-Bpa-Ala-hexarelin as radioligand, read-out: IC50, binding affinity of aza peptide derivatives towards CD36
Protocol: The hearts from Sprague Dawley rats (300 g-325 g) from Charles River, used as a source of cardiac membranes, were prepared as follows: the heart was washed with ice-cold saline, and fatty and connective tissue was removed. The tissue was cut into small pieces with scissors and placed in a Sorvall centrifuge tube containing 5 ml/g of fresh tissue of Buffer A (10 mM NaHCO3, 5 mM NaN3, 10 μM Pefabloc, 0.1 μM Aprotinin, 1 μM Pepstatin A, 1 μM Leupeptin, pH 7.0). The suspension was homogenized with a Polytron at low speed, 3×15 sec. The homogenate was centrifuged at 8 700×g for 20 min and the supernatant was put on ice. […] Protein concentration was determined with bicinchoninic acid (BCA) method, using BSA as standard. […]
Nonspecific binding was defined as binding not displaced by 50 μM corresponding peptide. […] The gels resulting from SDS/PAGE were fixed, colored in Coomassie Brilliant Blue R-250, dried, exposed to a storage phosphor intensifying screen (Amersham Biosciences), and analysed by using a Typhoon PhosphorImager (Amersham Biosciences) and ImageQuant 5.0 software to establish competition curves. Protein bands were quantified by densitometry. The covalent binding signal of 87 kDa was analyzed by densitometry using Typhoon Phospholmager™ (Typhoon, Amersham Biosciences) and ImageQuant 5.0® software to set competition curves. […]

[3] = Table 4, LLCPK-1 membranes overexpressing GHS-R1a, radioiodinated (1-28) rat ghrelin as tracer, read-out: EC50 (text: IC50 values from competition curves in GHS-R1a radioreceptor assay)

IC50 [1, 3] [nM]	IC50 [2] [nM]	IC50 ([1]; Table 5, read-out: IC50 Binding GHS-R1a) [nM]	SMILES
808	–	–	NCCCC[C@H](NC(=O)[C@@H](Cc1ccccc1)NC(=O)[C@H](Cc1c[nH]c2ccccc12)NC(=O)NNC(=O)[C@@H](Cc1c[nH]c2ccccc12)NC(=O)[C@@H](N)Cc1cnc[nH]1)C(N)=O [DBG188p, His-D-Trp-azaGly-Trp-D-Phe-Lys-NH2]
729	36800	–	C[C@H](NC(=O)N(CCc1ccccc1)NC(=O)[C@@H](N)Cc1cnc[nH]1)C(=O)N[C@@H](Cc1c[nH]c2ccccc12)C(=O)N[C@H](Cc1ccccc1)C(=O)N[C@@H](CCCCN)C(N)=O [DBG253-11, His-azahomoPhe-Ala-Trp-D-Phe-Lys-NH2]
–	–	568	C[C@H](N)C(=O)N[C@H](Cc1c[nH]c2ccccc12)C(=O)NNC(=O)N[C@@H](Cc1c[nH]c2ccccc12)C(=O)N[C@H](Cc1ccccc1)C(=O)N[C@@H](CCCCN)C(N)=O [CP-2A(v), Ala-D-Trp-azaGly-Trp-D-Phe-Lys-NH2]
–	1800	–	C[C@H](NC(=O)N(Cc1ccc(O)cc1)NC(=O)[C@@H](N)Cc1cnc[nH]1)C(=O)N[C@@H](Cc1c[nH]c2ccccc12)C(=O)N[C@H](Cc1ccccc1)C(=O)N[C@@H](CCCCN)C(N)=O [DBG175p, His-azaTyr-Ala-Trp-D-Phe-Lys-NH2]
